Marks after values point to notes of the source that are not given here. Starred links: 1 amine or outer side, 2 acyl side, 3 side chain; linkers in the order of their positions; H or OH if unused. Non-standard residues stand in square brackets, D forms with d. Residues, ends and D or L forms follow the SMILES beside them. Pentanoyl(2-O,4-OH,5-Cl) = O=C(O)C(O)CC(O)CCl; X3 = C[C@H]1CCN([*:1])[C@@H]1C(=O)[*:2]; X2 = O=C([C@@H](CC(O)CCl)O[*:1])[*:2]; dLac(3-vinyl) = C=CC[C@@H](O)C(=O)O; NMeI = CC[CH](C)[CH](NC)C(=O)O; X1 = CC1CCN([*:1])C1C(=O)[*:2]; dHica = CC(C)C[C@@H](O)C(=O)O; NMeV = CN[C@H](C(=O)O)C(C)C; NMeA = CN[CH](C)C(=O)O; βAla = NCCC(=O)O
Test system: Brine shrimp (Artemia salina)

SMILES | Brine shrimp lethality (LD50)
CCC(C)C1NC(=O)C2C(C)CCN2C(=O)C(CC(O)CCl)OC(=O)CCNC(=O)C(C)N(C)C(=O)C(C(C)CC)N(C)C1=O (centres unmarked) [Compound 1, Trichomide D] (cyclo([X1]I[NMeI][NMeA][βAla][Pentanoyl(2-O,4-OH,5-Cl)]); configuration not given here) | 0.48 µM
C=CC[C@H]1OC(=O)CCNC(=O)[C@H](C)N(C)C(=O)[C@H]([C@@H](C)CC)N(C)C(=O)[C@H]([C@@H](C)CC)NC(=O)[C@@H]2[C@@H](C)CCN2C1=O [Compound 2, destruxin A5] (cyclo(I[NMeI][NMeA][βAla][dLac(3-vinyl)][X3])) | 0.74 µM
CC[C@H](C)[C@@H]1NC(=O)[C@@H]2[C@@H](C)CCN2C(=O)[C@@H](C[C@@H](C)CO)OC(=O)CCNC(=O)[C@H](C)N(C)C(=O)[C@H]([C@@H](C)CC)N(C)C1=O [Compound 3, trichomide A] | >50 µM
CC[C@H](C)[C@@H]1NC(=O)[C@@H]2CCCN2C(=O)[C@@H](CC(C)C)OC(=O)CCNC(=O)[C@H](C)N(C)C(=O)[C@H]([C@@H](C)CC)N(C)C1=O [Compound 4, homodestruxin B] (cyclo(I[NMeI][NMeA][βAla][dHica]P)) | 3.22 µM
CC[C@H](C)[C@@H]1NC(=O)[C@@H]2CCCN2C(=O)[C@@H](CC(O)CCl)OC(=O)CCNC(=O)[C@H](C)N(C)C(=O)[C@H](C(C)C)N(C)C1=O (some centres unmarked) [Compound 5, destruxin chlorohydrin] (cyclo(I[NMeV][NMeA][βAla][X2]P)) | 2.47 µM
C=CC[C@H]1OC(=O)CCNC(=O)[C@H](C)N(C)C(=O)[C@H](C(C)C)N(C)C(=O)[C@H]([C@@H](C)CC)NC(=O)[C@@H]2[C@@H](C)CCN2C1=O [Compound 6, roseotoxin B] (cyclo(I[NMeV][NMeA][βAla][dLac(3-vinyl)][X3])) | 2.81 µM
CC[C@H](C)[C@@H]1NC(=O)[C@@H]2[C@@H](C)CCN2C(=O)[C@@H](CC(C)CO)OC(=O)CCNC(=O)[C@H](C)N(C)C(=O)[C@H](C(C)C)N(C)C1=O (some centres unmarked) [Compound 7, roseotoxin C] | >50 µM
COc1cc2c(c(OC)c1OC)-c1ccc(OC)c(=O)cc1[C@@H](NC(C)=O)CC2 [colchicine, reference compound] | 8.4 ^a μM

From article PMC6316070 (Marine Drugs, 2018)
